Measured values from patent publication US20230372302A1 (priority 2019, published 2023).

Chains of the proteins cited; added tags and fusions are not shown.
UniProt P25100, whole entry: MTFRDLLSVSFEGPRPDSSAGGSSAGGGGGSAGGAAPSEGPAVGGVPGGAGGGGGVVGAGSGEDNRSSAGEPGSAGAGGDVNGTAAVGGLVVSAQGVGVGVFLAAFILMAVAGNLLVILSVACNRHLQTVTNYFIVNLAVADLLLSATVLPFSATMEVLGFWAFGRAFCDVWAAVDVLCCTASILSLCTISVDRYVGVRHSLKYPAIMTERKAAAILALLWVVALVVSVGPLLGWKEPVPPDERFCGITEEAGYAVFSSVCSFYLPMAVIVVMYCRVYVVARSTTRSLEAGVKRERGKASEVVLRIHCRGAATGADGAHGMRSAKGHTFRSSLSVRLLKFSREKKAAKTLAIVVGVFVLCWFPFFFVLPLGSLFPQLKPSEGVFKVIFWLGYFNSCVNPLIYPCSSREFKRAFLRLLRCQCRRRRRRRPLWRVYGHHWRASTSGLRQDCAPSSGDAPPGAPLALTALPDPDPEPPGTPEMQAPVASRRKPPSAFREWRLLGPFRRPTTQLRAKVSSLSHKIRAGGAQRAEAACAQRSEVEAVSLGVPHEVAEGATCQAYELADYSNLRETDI

What was measured:
[1] = tested on: VC and laryngeal muscles/laryngospasm; details: rat model; cited from earlier work
[2] = biological target: recombinant human alpha 1D adrenergic receptor (ADR1D) (Homo sapiens, UniProt P25100); assay: Radioligand binding, alpha 1D adrenergic receptor (Adr1D)

In the case of C=CCN1CC[C@]23c4c5ccc(O)c4O[C@H]2C(=O)CC[C@@]3(O)[C@H]1C5.Cl [naloxone, 17-Allyl-4,5α-epoxy-3,14-dihydroxymorphinan-6-one hydrochloride], the “dose at which naloxone has an effect on fentanyl VC/laryngospasm” value [1] is listed as greater than 0.8 mg/kg.
In the case of NC[C@H](O)c1ccc(O)c(O)c1 [norepinephrine], the BA at 1D greater than carfentanil [2] is reported as 20 ×, the BA at 1D greater than fentanyl [2] is reported as 30 × and the “greater affinity at the 1D compared to carfentanil and fentanyl, respectively” value [2] is reported as 25-30 fold.
